Values quoted from earlier work in paper PMC9971260 (Scientific Reports, 2023).

Test system: COX-2
Details: Coxibs, selective COX-2 inhibition; no reference given; cited from earlier work

Cc1onc(-c2ccccc2)c1-c1ccc(S(N)(=O)=O)cc1 [valdecoxib]
IC50 against COX-2 (in words): low-nanomolar
